This is an account of results in paper PMC12396409, “Screening and hit evaluation of a microbial metabolite library against the pathogenic Plasmodium falciparum and Toxoplasma gondii parasites” (International Journal for Parasitology: Drugs and Drug …, 2025).

Where a name gives a salt, the structure may show the parent alone.

Test [1] relates to P. falciparum 3D7 parasites. In words: P. falciparum growth inhibition assay, 2-cycle (120 h treatment), delayed-death screen and dose-response.
The test system of test [2] is P. falciparum 3D7 parasites. Description: P. falciparum growth inhibition assay, 1-cycle (72 h treatment), SYBR DNA staining (library screen at 2 μg/mL and dose-response). Format: cell-based, Plasmodium falciparum.
Test [3] relates to HFF cells.
Where [4] appears, read: Plasmodium falciparum, 3D7, 120 h, read-out: Pf_120h_%Growth_Rep1.
Where [5] appears, read: Plasmodium falciparum, 3D7, 120 h, read-out: Pf_120h_%Growth_Rep2.
Where [6] appears, read: Plasmodium falciparum, 3D7, 72 h, read-out: Pf_72h_%Growth_Rep1.
[7] abbreviates: Plasmodium falciparum, 3D7, 72 h, read-out: Pf_72h_%Growth_Rep2.

In the case of `O=C(O)c1cccc(C(=O)O)n1` [Dipicolinic acid], the activity at 2 µg/mL in test [1] (setting [4]) stood at 81.8%; in test [1] (setting [5]) it was 110%; in test [2] (setting [6]), 83.1%; in test [2] (setting [7]), 35.9%.

As to `CN(C)c1ccc(O)c2c1C[C@H]1C[C@H]3[C@H](N(C)C)C(O)=C(C(N)=O)C(=O)[C@@]3(O)C(O)=C1C2=O` [Minocycline HCl, reference compound], the “selectivity for P. falciparum in the screens” value in test [2] is “selective for P. falciparum”.

As to `CCC[C@@H]1C[C@@H](C(=O)N[C@@H]([C@H]2O[C@H](SC)[C@H](O)[C@@H](O)[C@H]2O)[C@H](C)Cl)N(C)C1` [Clindamycin hydrochloride, reference compound], in test [1], the “3) Fold change (72 h/120 h)” value came to 14.5. For the same molecule, the activity at 2 µg/mL was 2.75% in test [1] (Plasmodium falciparum, 3D7, 120 h, read-out: 2) Growth (%) at 120 h); 8.87% in test [1] (setting [4]); -3.37% in test [1] (setting [5]); 40% in test [2] (Plasmodium falciparum, 3D7, 72 h, read-out: 1) Growth (%) at 72 h); 42.4% in test [2] (setting [6]); 37.5% in test [2] (setting [7]).

Molecule `COc1ccc2c3c(c4cc(OC)c(OC)cc4c2c1)C[C@H]1CCCCN1C3` [Cryptopleurine] came in with a selectivity index in test [3] of 2.5.
